Assays:
[1] = Aggregation by dynamic light scattering; assay type: physicochemical; settings: transport buffer; 0.1, 1 and 10 µM; 25 °C
Procedure: All measurements were conducted at 25 °C with a detection angle of 173° and a measuring time of 120 s. Compound solutions were prepared in transport buffer (s. 2.3) at 0.1 µM, 1 µM, and 10 µM. For each sample, the measurement was recorded in triplicate. In DLS, the fluctuation of intensity in scattered light is correlated against short decay intervals (τ) and the intensity ACF (autocorrelation function) is obtained through the following mono-exponential equation:G(2) (τ) = B + Bf exp (−2Dmq^2 τ) (7)
• G(2)(τ): Measured amplitude autocorrelation function • B: So-called baseline • f: Instrument constant • Dm: Particle diffusion coefficient • q: Scattering vector given by (4πn/λ)sin(θ/2) • τ: Delay time
A correlogram is generated where g2(τ) is plotted against the decay time.

[2] = parameters: method as in PMID 25131706; settings: cited from earlier work

Substance | aggregation (DLS time correlation function) [1] | exposure in brain vs plasma ([2]; P-gp deficient mice) | brain levels ([2]; wildtype (WT) mice)
Cyclosporin A | does not aggregate |  | 
Emodepside | concentration-dependent aggregation | comparable exposure in brain and plasma | not detectable

Source: paper PMC8400635, “A Bidirectional Permeability Assay for beyond Rule of 5 Compounds” (Pharmaceutics, 2021)
